Chains of the proteins cited; added tags and fusions are not shown.
UniProt Q00534, whole entry: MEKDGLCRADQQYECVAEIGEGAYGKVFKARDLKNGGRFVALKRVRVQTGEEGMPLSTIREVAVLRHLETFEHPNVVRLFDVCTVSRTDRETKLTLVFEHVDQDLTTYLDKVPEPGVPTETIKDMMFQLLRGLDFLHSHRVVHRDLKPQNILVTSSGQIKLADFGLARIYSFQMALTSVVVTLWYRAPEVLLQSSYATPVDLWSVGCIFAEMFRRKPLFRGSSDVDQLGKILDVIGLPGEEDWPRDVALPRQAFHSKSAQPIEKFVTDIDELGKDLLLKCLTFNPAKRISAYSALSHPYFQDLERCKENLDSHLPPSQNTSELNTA
UniProt P11802, whole entry: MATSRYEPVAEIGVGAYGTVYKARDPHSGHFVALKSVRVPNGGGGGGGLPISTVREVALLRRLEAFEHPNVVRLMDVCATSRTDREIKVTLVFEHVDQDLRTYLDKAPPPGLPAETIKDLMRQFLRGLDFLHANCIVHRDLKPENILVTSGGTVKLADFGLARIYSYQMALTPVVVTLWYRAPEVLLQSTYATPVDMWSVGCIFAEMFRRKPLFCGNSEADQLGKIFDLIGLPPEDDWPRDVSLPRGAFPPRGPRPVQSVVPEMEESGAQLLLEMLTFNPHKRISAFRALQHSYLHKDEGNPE
UniProt P24385, whole entry partner: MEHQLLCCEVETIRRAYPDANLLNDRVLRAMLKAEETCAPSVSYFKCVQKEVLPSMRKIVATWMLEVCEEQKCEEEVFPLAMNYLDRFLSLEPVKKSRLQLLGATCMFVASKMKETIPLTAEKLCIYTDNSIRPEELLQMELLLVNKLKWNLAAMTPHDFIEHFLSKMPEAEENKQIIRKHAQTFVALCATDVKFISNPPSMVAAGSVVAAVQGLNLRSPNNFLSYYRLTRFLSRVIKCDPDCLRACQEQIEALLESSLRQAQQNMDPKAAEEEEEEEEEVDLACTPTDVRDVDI
UniProt P30281, whole entry partner: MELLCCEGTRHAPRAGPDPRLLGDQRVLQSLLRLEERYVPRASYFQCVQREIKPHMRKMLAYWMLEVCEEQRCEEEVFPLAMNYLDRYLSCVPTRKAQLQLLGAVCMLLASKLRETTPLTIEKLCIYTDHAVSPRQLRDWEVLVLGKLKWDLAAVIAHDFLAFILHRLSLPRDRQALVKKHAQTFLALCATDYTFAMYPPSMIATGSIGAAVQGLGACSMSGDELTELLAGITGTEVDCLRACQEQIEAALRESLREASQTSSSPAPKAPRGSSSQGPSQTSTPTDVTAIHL

According to patent US6958333B1, “Biarylurea derivatives” (Banyu Pharmaceutical Co., Ltd., priority 1999, dated 2005):

Key:
cyclin D3-Cdk6 = cyclin D3-Cdk6 (Homo sapiens, UniProt Q00534); assay: Enzyme assay of cyclin D3-Cdk6 (33P-ATP phosphorylation of peptide substrate); details: read-out: IC50(μM) cyclin D3-Cdk6; 100 μM peptide substrate, 50 μM ATP, 30° C.
cyclin D2-Cdk4 = cyclin D2-Cdk4 (Homo sapiens, UniProt P11802); assay: Enzyme assay of cyclin D2-Cdk4 (33P-ATP phosphorylation of RB peptide substrate); assay type: biochemical; details: read-out: IC50(μM) cyclin D1-Cdk4, Table 1, second value column (head repeats cyclin D1-Cdk4), 50 μM ATP, 100 μM peptide substrate, 30° C., 45 min
cyclin D1-Cdk6 = cyclin D1-Cdk6 (Homo sapiens, UniProt Q00534); assay: Enzyme assay of cyclin D1-Cdk6 (33P-ATP phosphorylation of peptide substrate); details: read-out: IC50(μM) cyclin D1-Cdk6, 400 μM peptide substrate, 50 μM ATP, 30° C.
HCT116 cells = assay: Activity of inhibiting cell growth, HCT116 (sulforhodamine B); details: read-out: IC50(μM) HCT116 Cell, cell growth inhibition, 3 days incubation
cyclin D1-Cdk4 = cyclin D1-Cdk4 (Homo sapiens, UniProt P11802); assay: Enzyme assay of cyclin D1-Cdk4 (33P-ATP phosphorylation of RB peptide substrate); assay type: biochemical; details: read-out: IC50(μM) cyclin D1-Cdk4; Table 1, first value column; 50 μM ATP, 100 μM peptide substrate, 30° C., 45 min
MKN-1 cells = assay: Activity of inhibiting cell growth, MKN-1 (sulforhodamine B); details: read-out: IC50(μM) MKN-1 Cell, cell growth inhibition, 3 days incubation

An IC50 (cyclin D3-Cdk6) of 0.022 µM was found for `O=C(Nc1cc(CNC2Cc3ccc(Cl)cc3C2)[nH]n1)Nc1cccc2c1C1CCCN1C2=O` (racemic) in this work.

An IC50 (cyclin D2-Cdk4; tested form: HCl) of 0.033 µM and an IC50 (cyclin D1-Cdk6; tested form: HCl) of 0.065 µM were found for `CCCCNCCc1ccnc(NC(=O)Nc2cccc3c2C2CCCN2C3=O)c1` (single isomer, unassigned) in this work.

An IC50 (HCT116 cells) of 0.013 µM, an IC50 (cyclin D1-Cdk4) of 0.061 µM and an IC50 (cyclin D2-Cdk4) of 0.019 µM were found for `C=C(O)c1ccc2n1C(=O)c1cccc(NC(=O)Nc3ccccn3)c1-2` in this work. The IC50 (cyclin D1-Cdk6) was 0.013 µM and the IC50 (MKN-1 cells) was 0.1 µM.

Where two headings read alike, the source gives them in different places.
